Test results as given in article PMC6891394, “Determination of Picomolar Concentrations of Paraoxon in Human Urine by Fluorescence-Based Enzymatic Assay” (2019).

Chains of the proteins cited; added tags and fusions are not shown. Residues count along the entry.
UniProt Q7SIG1, 1-310 limits assumed: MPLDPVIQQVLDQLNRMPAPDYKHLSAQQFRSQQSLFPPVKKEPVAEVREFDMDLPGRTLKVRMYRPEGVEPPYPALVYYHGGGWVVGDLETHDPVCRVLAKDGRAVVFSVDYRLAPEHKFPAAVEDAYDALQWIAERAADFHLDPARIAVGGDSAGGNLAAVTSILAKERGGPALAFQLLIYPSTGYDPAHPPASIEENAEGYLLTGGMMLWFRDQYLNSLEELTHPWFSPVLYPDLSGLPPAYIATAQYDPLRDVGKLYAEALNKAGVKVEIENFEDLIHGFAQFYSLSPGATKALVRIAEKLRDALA

Target: esterase-2 (EST2) (Alicyclobacillus acidocaldarius, UniProt Q7SIG1)
Assay: fluorescence of released 4-MU (Ex […], Em […] nm); Lineweaver-Burk
Details: 25 mM HEPES pH 7.0, 1% Triton X-100, 30 °C

SMILES: CCCC(=O)Oc1ccc2c(C)cc(=O)oc2c1
- Km: 222 µM
